The results in this text go back to US20130060020A1, “Compounds useful for treating neurodegenerative disorders” (Satori Pharmaceuticals, Inc., priority 2011, published 2013).

SMILES strings stand for the structures. Where two headings read alike, the source gives them in different places.

The test system of assay [1] is Aβ-42. Nature of the assay: Aβ-42 MSD 3-plex ELISA, conditioned media of 2B7 cells. The class given is cell-based. Conditions: Homo sapiens, 5 h. The method, then: (§1) Assays were conducted to determine the ability of a Compound of Formula I to modulate […], and Aβ-38.
(§2) Plates with capture antibodies were blocked for 1-2 hours at room temperature with 150 μL of the manufactures blocking reagent.
(§3) Cultured 2B7 cells in 96 well plate with 250 μL of media per well until confluent;
(§4) Prepared serial dilutions of compounds in DMSO at 100× the final desired concentration;
(§5) Washed wells with 2B7 cells 1× with 250 μL of media;
(§6) Diluted DMSO stocks 1:100 into media: • Added 250 μL of media containing compounds (1% DMSO) to wells with 2B7 cells for 5 hours at 37° C.
(§7) ELISA Sample Prep: • Diluted conditioned media: 1 part media with 1% DMSO and 1 part blocking buffer; • 150 μL of the 250 μL of conditioned media were used.
(§8) Prepared per manufacturer's protocol (see above). • Seven point standard curve samples were prepared that contained Aβ-42, Aβ-40, and Aβ-38. The highest concentration of Aβ-42 and Aβ-38 was 3,000 pg/mL and the highest concentration of Aβ-40 was 10,000 pg/mL. Subsequent serial dilutions were 1:3 and the final composition of each sample was 1 part blocking buffer and 1 part cell medium containing 1% DMSO.
(§9) Overnight Sample Incubation: • Blocked plates are washed 5× with MSD wash buffer with a plate washer; • […] and blocker G reagent in MSD blocking solution was added; • 25 μL of samples (1 part conditioned media containing 1% DMSO and 1 part MSD blocking buffer) were then added; • Plates were incubated overnight at 4 degrees C. or 2 hours at room temperature.
(§10) Final Wash and Readout: • Washed wells 5× with MSD wash buffer; • Added 150 μL 2×MSD read buffer; • Read with MSD imager.
(§11) Aβ peptide levels for each peptide were calculated from the standard curve using the MSD software provided with the MSD 2400 Imager. Percent vehicle values for each compound dosage were then calculated and fit to a 4 parameter curve generating IC50 values.
(§12) Conditioned media from 2B7 cells (Mayo) was collected after 5 hours of treatment and diluted with 1 volume of Meso Scale Discovery (MSD, Gaithersburg Md.) blocking buffer (1% BSA in MSD wash buffer). For total Aβ measurements, standard-bind, multi-array single spot 96 well MSD ELISA plates were coated with unlabeled 4G8 capture antibody (Covance, Princeton, N.J.) overnight at 4° C. and then blocked with 5% BSA in MSD wash buffer for 1 hour at room temperature with orbital shaking Diluted 2B7 conditioned media were added to the blocked in-house total Aβ MSD plates with SULFO-TAG 6E10 antibody (MSD). For Aβ38, 40 and 42 measurements, diluted 2B7 conditioned media were added to blocked human (6E10) Aβ 3-Plex plates (MSD). Total Aβ and Aβ 3-Plex plates were incubated for 2 hours at room temperature with orbital shaking followed by washing and reading according to the manufacturer's instructions (SECTOR® Imager 2400, MSD). Aβ concentrations were converted to percent vehicle values and used to construct dose response curves which were fitted to […] using GraphPad Prism version 5.00 for Windows, GraphPad Software, San Diego Calif. USA.

Assay [2] deals with Aβ-38. Nature of the assay: Aβ-38 MSD 3-plex ELISA, conditioned media of 2B7 cells. It is filed as cell-based. The following applies: Homo sapiens, 5 h, read-out: Aβ 38 IC50. The method, then: as §1, §2, §3, §4, §5, §6, §7, §8, §9, §10, §11, §12
Assay [3] concerns Aβ-40. Nature of the assay: Aβ-40 MSD 3-plex ELISA, conditioned media of 2B7 cells. The class given is cell-based. Conditions: Homo sapiens, 5 h. The method, then:
as §1, §2, §3, §4, §5, §6, §7, §8, §9, §10, §11, §12

In assay [4] the test system is Notch processing (NICD). Nature of the assay: Notch assay: NICD appearance in SUP-T1 cells (western blot). Conditions: Homo sapiens, SUP-T1, 18 h, read-out: Notch IC50. The class given is cell-based. The method, then:
The methods for this assay are broken up into two parts. 1) Growing, dosing and lysing cells 2) Measuring Notch processing (NICD appearance) and data manipulation. Cell viability is also described (CTG). SUP-T1 cells were cultured in T75 flasks in RPMI media (Mediatech 10-041-CV) supplemented with 10% FBS and penicillin/streptomycin at 37° C. in a 5% CO2 atmosphere. One hour prior to drug treatment six well plates were seeded with 1.5 mL of media with cells at a density of 1.0×10^6 cells/mL. The DMSO serial dilutions were diluted 100 fold directly into the media with the cells and incubated for 18 hours at 37° C. After treatment 100 μL of treated cells were assayed for viability with the Promega Cell Titer Glo assay system. The remaining cells were washed 2× in PBS and then lysed with 1× promega reporter lysis buffer (E397A) containing a complete protease inhibitor cocktail (Roche 04 693 116 011) for 1 hour at 4° C. Lysates were spun at 5,000 RPM for 5 minutes and supernatants were collected and analyzed for NICD levels. Total protein levels of the cell lysates were measured and adjusted to 0.5 ug/uL using Thermo Scientific's BCA assay (23221/23224) with a BSA standard curve. Lysates were then diluted with one part of gel loading buffer (BioRad 161-0739) with BME (BioRad 161-0739) and separated on 4-20% poly-acrylamide tris/glycine gels (BioRad 345-0065) for 1 hour at 200V. The gels were then equilibrated in transfer buffer (20% Methanol in Tris-glycine buffer, BioRad 161-0734) and transferred to 0.45 micron nitrocellulose (Whatman 10 401196) for 45 minutes at 100V in a tank transfer system. […] The membranes were then washed and probed with a HRP tagged anti rabbit secondary (1:20,000 dilution, Rockland 811-1322) in 5% milk in TBS-T for an hour at room temperature. […] To account for loading discrepancies each NICD band was normalized to the alpha tubulin band in that well. These values were then normalized to vehicle levels and used to plot a dose response curve. IC50 values were obtained from the dose response curves using a four parameter fit method available within Prism's GraphPad graphing suite. Luminescent data from Promega's Cell Titre Glo assay system were normalized to vehicle controls and plotted with NICD levels.

Assay [5] concerns Aβ 42. Nature of the assay: % 42 lowering and 40/42 selectivity after dosing in mg/kg (Table 5). It is filed as in vivo. The following applies: 150 mg/kg.

On to `CCO[C@@H]([C@H]1C[C@@H](C)[C@H]2[C@H](O1)[C@H](O)[C@@]1(C)[C@@H]3CC[C@H]4C(C)(C)[C@@H](O[C@H]5CN(CC6CN(C)C6)CCO5)CC[C@@]45C[C@@]35CC[C@]21C)C(C)(C)O` [Compound I-5], for which the IC50 in assay [1] (read-out: Aβ 42 DR IC50 Inflection) was 0.1 to 0.5 µM; in assay [1] (read-out: Aβ 42 IC50), 0.1 to 0.5 µM; in assay [2], 0.501 to 1 µM; in assay [3] (read-out: Aβ 40 DR IC50 Inflection) it was 1 to 5 µM; in assay [3] (read-out: Aβ 40 IC50), 1 to 5 µM; in assay [4], over 5 µM. The “40/42 selective 10 hr” value in assay [5] is reported as “F (10-15 fold selectivity)”.
